# Measured affinities in a library of Ab-14 light chain variants

Source: Engelhart et al. 2022 (doi:10.1038/s41597-022-01779-4), MIT Lincoln Laboratory and A-Alpha Bio; data file from the FLAb repository.

Binding partner: SARS-CoV-2 spike HR2 peptide, sequence PDVDLGDISGINAS.

The variants keep the heavy chain, the linker and the frameworks of Ab-14 (scFv order VH, three GGGGS repeats, VL).
VH: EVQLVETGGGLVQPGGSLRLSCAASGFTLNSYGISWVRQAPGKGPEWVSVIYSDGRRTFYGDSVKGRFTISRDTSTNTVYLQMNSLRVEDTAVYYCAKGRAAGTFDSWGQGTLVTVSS
VL: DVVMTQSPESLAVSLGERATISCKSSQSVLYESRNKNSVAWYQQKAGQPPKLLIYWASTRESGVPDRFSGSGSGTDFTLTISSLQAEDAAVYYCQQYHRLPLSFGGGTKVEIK

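The parent was found by panning a naive human phage display library on the peptide. Library AAYL50 holds single substitutions and randomly drawn double and triple substitutions in the CDRs. AlphaSeq pools MATa yeast showing the antibodies with MATalpha yeast showing the peptide. Binding brings cells together so that they mate, and sequencing counts the barcode pairs among the diploids. A regression on co-assayed BCL2-family reference pairs converts the normalised counts of each replicate to an apparent Kd. There are three technical replicates.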

Positions count from residue 1 of the parent VL; Q27A puts A in place of Q.
This list gathers variants with a substitution at V29 (VL, numbered from residue 1).
Values are log10 of the apparent Kd in nM; lower means stronger binding.
Averages over replicates are reported, and they cover detected replicates only.
"nd" marks a missing value. The strain was present, yet no cells mated with the target were sequenced in any replicate, which points to weak or no binding.
Nonspecific signal, from three strains lacking the peptide, appeared in 18% of pairings of library AAYL50, centred on 4.19 (5% of these signals below 2.99); values are not corrected for it.

The variant Q27A+V29T gave 1.06 (3 of 3 replicates).
The variant V29N+R34M+R60T gave nd (0 of 3 replicates).
The variant S25G+S28V+V29I gave 1.55 (3 of 3 replicates).
The variant K24E+V29S+E61N gave 2.61 (3 of 3 replicates).
The variant V29D+W56Q+H98W gave -0.33 (3 of 3 replicates).
The variant V29M+S38C+L102E gave nd (0 of 3 replicates).
The variant V29Y+E32R+R60T gave 4.60 (2 of 3 replicates).
The variant V29T+R60V+L102G gave 3.04 (1 of 3 replicates).
The variant V29N+Y31M+E32R gave 2.35 (3 of 3 replicates).
The variant V29A+V39F gave 2.29 (3 of 3 replicates).
The variant V29P+H98P+P101T gave 3.21 (1 of 3 replicates).
The variant V29C+S38H+P101N gave 2.81 (3 of 3 replicates).
The variant V29T+N37G+E61Q gave 1.40 (3 of 3 replicates).
The variant V29A+E32L+N35L gave 2.37 (3 of 3 replicates).
The variant V29A+P101D gave 3.01 (1 of 3 replicates).
The variant V29Q+R34M+S58T gave 0.25 (3 of 3 replicates).
The variant V29N+R99A+L100I gave 2.01 (2 of 3 replicates).
The variant V29T+Y31M+E61F gave 1.53 (3 of 3 replicates).
The variant V29N+N35I+H98W gave 0.90 (3 of 3 replicates).
The variant V29L+S38Q+T59E gave nd (0 of 3 replicates).
The variant V29D+V39A+L102H gave 4.88 (2 of 3 replicates).
The variant V29G+N37G gave 1.24 (3 of 3 replicates).
The variant V29E+L100P+P101K gave nd (0 of 3 replicates).
The variant Q27C+V29D gave nd (0 of 3 replicates).
The variant S26P+V29A+Y97V gave 1.29 (3 of 3 replicates).
The variant V29H+R34E+R60H gave nd (0 of 3 replicates).
The variant K24N+V29Q+R99E gave nd (0 of 3 replicates).
The variant Q27V+V29A+R99Q gave 0.44 (3 of 3 replicates).
The variant V29F+K36Y+R99M gave nd (0 of 3 replicates).
The variant V29C+E61M+Y97Q gave 5.20 (1 of 3 replicates).
The variant V29Y+N35V+N37A gave 3.96 (2 of 3 replicates).
The variant V29W+R34H+R99T gave 0.71 (3 of 3 replicates).
The variant V29R+N35G+Q96R gave nd (0 of 3 replicates).
The variant V29R+W56C+Q96G gave 1.55 (3 of 3 replicates).
The variant V29H+W56D+Q96R gave 0.06 (3 of 3 replicates).
The variant V29I+S58K+S62P gave 2.35 (3 of 3 replicates).
The variant V29Y+Y31Q+L102I gave nd (0 of 3 replicates).
The variant V29W+S38M+L100H gave 1.91 (3 of 3 replicates).
The variant V29G+N35V+K36E gave 0.79 (3 of 3 replicates).
The variant V29D+K36A+W56Q gave 0.41 (3 of 3 replicates).
The variant V29G+Y31A+W56F gave 0.57 (3 of 3 replicates).
The variant S25M+V29Y+Y97Q gave nd (0 of 3 replicates).
The variant V29I+N35P gave 1.52 (3 of 3 replicates).
The variant V29S+A40K+S103R gave nd (0 of 3 replicates).
The variant K24G+V29P+A40Q gave 3.63 (2 of 3 replicates).
The variant V29T+A57S+S103K gave 1.66 (3 of 3 replicates).
The variant V29P+L30H+A40E gave 3.29 (1 of 3 replicates).
The variant V29H+Y31I+E32R gave 1.76 (2 of 3 replicates).
The variant V29R+R34L+T59F gave 2.31 (3 of 3 replicates).